Results taken from US20060281719A1, “Oestrogen-17-sulphamates as inhibitors of steroid sulphatase” (priority 2000, published 2006).

Protein sequences, listed by entry. Tags and fused reporters are not part of them. Residues count along the entry.
UniProt P08842, 22-583: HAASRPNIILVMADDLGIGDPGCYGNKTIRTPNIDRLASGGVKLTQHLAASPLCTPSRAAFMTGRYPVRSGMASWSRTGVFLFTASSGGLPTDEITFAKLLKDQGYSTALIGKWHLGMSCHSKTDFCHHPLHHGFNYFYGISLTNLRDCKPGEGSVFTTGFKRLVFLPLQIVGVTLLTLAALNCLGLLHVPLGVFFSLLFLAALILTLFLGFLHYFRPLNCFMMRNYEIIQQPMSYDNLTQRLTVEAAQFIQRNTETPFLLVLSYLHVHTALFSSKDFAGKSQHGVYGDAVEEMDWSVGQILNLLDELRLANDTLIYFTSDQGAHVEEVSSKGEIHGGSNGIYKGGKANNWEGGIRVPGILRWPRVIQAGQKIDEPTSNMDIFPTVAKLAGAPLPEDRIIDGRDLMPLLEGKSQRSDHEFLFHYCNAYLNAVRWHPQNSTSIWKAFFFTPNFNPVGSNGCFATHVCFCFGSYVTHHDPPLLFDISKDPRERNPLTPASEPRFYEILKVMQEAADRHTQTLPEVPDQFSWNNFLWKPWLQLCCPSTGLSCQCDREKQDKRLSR

Assays:
[1] = test system: tubulin; assay: Colchicine Displacement Assay (tubulin binding)
Procedure: Colchicine Displacement Assay
The protocol for this assay for tubulin binding is given below. [drawing 62]
Suitable blanks, controls are maintained at the same time and total counts added is determined.

[2] = target: oestrone sulphatase (E1-STS) (Homo sapiens, UniProt P08842); set-up: from tissue; host or cells: human term placenta (microsomal preparation); settings: placental microsomes preparation; cited from earlier work

Row | SMILES | Colchicine Displacement Assay (%) [1] [%] | potency against STS relative to EMATE [2] [fold]
1 | COc1cc2c(c(OC)c1OC)-c1ccc(OC)c(=O)cc1[C@@H](NC(C)=O)CC2 [Colchicine] | 79 | 
2 | NS(=O)(=O)Oc1ccc2c3c(c(=O)oc2c1)CCCCC3 [Compound 667COUMATE] |  | ~3
